Molecular target: T1, Serine/threonine-protein kinase 17A (Homo sapiens) (UniProt Q9UEE5)
T1 sequence (whole entry): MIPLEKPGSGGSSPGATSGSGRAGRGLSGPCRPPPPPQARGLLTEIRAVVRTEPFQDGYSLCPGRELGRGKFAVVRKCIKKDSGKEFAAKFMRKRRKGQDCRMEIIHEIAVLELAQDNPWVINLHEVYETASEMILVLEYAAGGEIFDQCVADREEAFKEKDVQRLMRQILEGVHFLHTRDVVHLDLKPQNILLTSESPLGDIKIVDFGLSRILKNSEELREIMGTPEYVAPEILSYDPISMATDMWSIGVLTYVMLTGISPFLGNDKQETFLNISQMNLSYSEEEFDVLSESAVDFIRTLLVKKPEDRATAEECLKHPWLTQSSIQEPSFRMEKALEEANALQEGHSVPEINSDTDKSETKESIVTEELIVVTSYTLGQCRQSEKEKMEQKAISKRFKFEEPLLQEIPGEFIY
Experiment: Binding affinity to human N-terminal His-tagged/ TEV cleavage fused DRAK1 (39 to 369 residues) expressed in Escherichia coli assessed as change in melting temperature at 10 uM by SYPRO orange dye based DSF assay

- ΔTm: 2.1 °C
SMILES: CN1CCN(C(=O)c2ccc3cc2OCCOCCNc2ccn4ncc-3c4n2)CC1

Source: ChEMBL document CHEMBL5154923 (J Med Chem, 2022)
